Biological target: T1, HMG-CoA reductase (Homo sapiens, UniProt P04035)
T1 sequence (P04035 1-888): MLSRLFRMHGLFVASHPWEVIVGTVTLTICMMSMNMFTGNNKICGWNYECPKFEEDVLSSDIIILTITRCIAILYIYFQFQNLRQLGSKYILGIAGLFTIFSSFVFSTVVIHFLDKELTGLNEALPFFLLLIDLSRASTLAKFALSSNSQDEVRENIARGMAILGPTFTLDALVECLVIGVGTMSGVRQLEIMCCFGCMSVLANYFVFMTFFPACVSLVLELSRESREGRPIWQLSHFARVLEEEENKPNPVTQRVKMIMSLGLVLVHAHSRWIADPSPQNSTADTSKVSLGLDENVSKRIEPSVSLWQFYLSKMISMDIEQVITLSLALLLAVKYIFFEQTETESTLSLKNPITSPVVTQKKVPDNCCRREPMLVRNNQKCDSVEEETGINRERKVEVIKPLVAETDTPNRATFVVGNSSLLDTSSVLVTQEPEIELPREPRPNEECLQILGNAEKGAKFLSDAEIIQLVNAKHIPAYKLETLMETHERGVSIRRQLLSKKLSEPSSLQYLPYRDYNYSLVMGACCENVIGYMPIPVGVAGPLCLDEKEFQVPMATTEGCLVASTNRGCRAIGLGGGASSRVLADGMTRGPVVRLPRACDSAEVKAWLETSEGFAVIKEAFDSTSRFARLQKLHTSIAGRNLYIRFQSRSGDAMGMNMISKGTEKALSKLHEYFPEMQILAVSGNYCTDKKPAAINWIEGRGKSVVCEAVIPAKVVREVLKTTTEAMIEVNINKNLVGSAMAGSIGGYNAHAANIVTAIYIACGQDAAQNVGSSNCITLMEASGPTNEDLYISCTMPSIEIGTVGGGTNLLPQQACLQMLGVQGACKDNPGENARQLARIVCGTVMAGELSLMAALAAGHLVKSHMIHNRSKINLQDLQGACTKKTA
Test: Inhibiting constant Ki of statins with HMG-CoA (reductase), conventional methods
Format: biochemical

`CC[C@H](C)C(=O)O[C@H]1C[C@H](O)C=C2C=C[C@H](C)[C@H](CC[C@@H](O)C[C@@H](O)CC(=O)O)[C@H]21` [Pravastatin, pravastatin] gave a Ki of 43 nM.

For `CC(C)c1c(C(=O)Nc2ccccc2)c(-c2ccccc2)c(-c2ccc(F)cc2)n1CC[C@@H](O)C[C@@H](O)CC(=O)O` [Atorvastatin, atorvastatin], the Ki was 8.2 nM.

— patent publication US20070185193A1, “Huvastatin and its preparation and formulation comprising the huvastatin” (HUAIBEI HUIKE PHARMACEUTICAL, CO. LTD., priority 2003, published 2007)
